Publication PMC12142581

Chains of the proteins cited; added tags and fusions are not shown.
UniProt P08173, whole entry, looked up: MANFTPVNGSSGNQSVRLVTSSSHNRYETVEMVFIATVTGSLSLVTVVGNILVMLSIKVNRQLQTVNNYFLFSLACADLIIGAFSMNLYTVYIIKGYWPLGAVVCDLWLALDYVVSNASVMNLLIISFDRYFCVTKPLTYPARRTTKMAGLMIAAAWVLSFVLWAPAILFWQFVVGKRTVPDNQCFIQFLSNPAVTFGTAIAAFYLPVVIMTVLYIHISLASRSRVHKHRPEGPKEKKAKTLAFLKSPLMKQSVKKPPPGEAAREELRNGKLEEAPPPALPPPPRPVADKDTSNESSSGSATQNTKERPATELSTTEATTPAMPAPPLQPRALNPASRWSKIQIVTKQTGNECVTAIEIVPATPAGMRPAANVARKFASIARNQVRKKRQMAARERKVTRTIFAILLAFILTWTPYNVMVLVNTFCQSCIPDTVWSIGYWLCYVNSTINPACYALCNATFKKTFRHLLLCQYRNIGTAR

Target: human M4 (hM4) (Homo sapiens, UniProt P08173)
Assay: Calcium mobilization assay, hM4/Gqi5-CHO cells, EC20 acetylcholine
Conditions: for %AChMax: normalized to 100 μM acetylcholine; for EC50: read-out: hM4 EC50

| Structure (SMILES) | hM4 pEC50 | %AChMax [% AChMax] | EC50 (PAM, EC20 ACh) [nM] | EC50 [nM] | fold loss of hM4 potency (vs 19a) [fold] | fold loss of hM4 potency (vs 15p) | fold more potent (hM4) (vs 19b) [fold] |
| --- | --- | --- | --- | --- | --- | --- | --- |
| Cc1nnc2sc3c(NC4CN(c5cc(Cl)ncc5Cl)C4)ncnc3c2c1C | 6.90 | 69 | 125 |  |  |  |  |
| Cc1nnc2sc3c(NCc4ccc(C(C)(C)O)cc4)nncc3c2c1C | 6.00 | 99 | 1000 | 1000 |  |  |  |
| Cc1nnc2oc3c(NC4CN(c5ncc(F)cn5)C4)ncnc3c2c1C | 6.55 | 37 | 284 |  |  |  |  |
| CCc1nnc2sc3c(NCc4ccc(C(C)(C)O)cc4F)ncnc3c2c1C | 6.04 | 50 | 916 |  | 3.4 |  |  |
| Cc1nnc2sc3c(CCC4CCCCO4)ncnc3c2c1C (centres unmarked) | 6.54 | 70 | 290 |  |  |  |  |
| Cc1c(C(F)F)nnc2sc3c(NCc4ccc(C(C)(C)O)cc4)ncnc3c12 | 6.60 | 99 | 251 |  |  | three-fold |  |
| Cc1nnc2sc3c(NC4CN(c5cnc(C6CC6)cn5)C4)ncnc3c2c1C | 7.23 | 80 | 58.3 |  |  |  |  |
| Cc1nnc2sc3c(C4CC(F)(F)C4)ncnc3c2c1C | 6.46 | 72 | 350 |  |  |  |  |
| Cc1c(Cl)nnc2sc3c(NCc4ccc(C(C)(C)O)cc4)ncnc3c12 | 6.77 | 97 | 171 |  |  | two-fold |  |
| Cc1nnc2sc3c(NCc4ccc(C(C)(C)O)c(F)c4)ncnc3c2c1C | 6.55 | 80 | 285 |  |  |  |  |
| Cc1nnc2sc3c(NC4CCC4)ncnc3c2c1C |  | 73 |  |  |  |  |  |
| Cc1nnc2sc3c(N4CC(c5ccncc5)C4)ncnc3c2c1C |  | 62 |  |  |  |  |  |
| Cc1nnc2sc3c(CC(C)(C)C)ncnc3c2c1C | 6.72 | 76 | 190 |  |  |  |  |
| COc1ccc(CNc2ncnc3c2sc2nnc(C)c(C)c23)cc1F |  | 90 |  |  |  |  |  |
| Cc1nnc2sc3c(C4CCOCC4)ncnc3c2c1C | 6.92 | 75 | 120 |  |  |  |  |
| Cc1nnc2sc3c(N4CC5CC5C4)ncnc3c2c1C (centres unmarked) | 7.67 | 81 | 21.3 |  |  |  |  |
| Cc1nnc2sc3c(NC4CC4)ncnc3c2c1C | 7.97 | 97 | 10.6 |  |  |  |  |
| Cc1cc(C(C)(C)O)ccc1CNc1ncnc2c1sc1nnc(C)c(C)c12 | 6.64 | 71 | 231 |  |  |  |  |
| Cc1nnc2sc3c(NC4CCC4)nccc3c2c1C | 7.85 | 84 | 14.2 |  |  |  |  |
| Cc1nnc2sc3c(NC4CN(c5ncc(C(F)(F)F)cn5)C4)ncnc3c2c1C | 6.67 | 76 | 214 |  |  |  |  |
| Cc1nnc2sc3c(NCc4ccc(C(=O)O)cc4)ncnc3c2c1C | 6.36 | 91 | 441 |  |  |  |  |
| Cc1nnc2sc3c(C4CCNCC4)ncnc3c2c1C | 5.37 | 34 | 4270 |  |  |  |  |
| Cc1nnc2sc3c(Oc4ccccc4)ncnc3c2c1C | <5.00 | 25 | > 10000 |  |  |  |  |
| Cc1nnc2sc3c(NCc4ccc(C(=O)NC5CC5)cc4)ncnc3c2c1C | 6.98 | 93 | 104 |  |  |  |  |

| Structure (SMILES) | hM4 pEC50 | %AChMax [% AChMax] | EC50 (PAM, EC20 ACh) [nM] | EC50 [nM] | fold loss of hM4 potency (vs 19a) [fold] | fold loss of hM4 potency (vs 15p) | fold more potent (hM4) (vs 19b) [fold] |
| --- | --- | --- | --- | --- | --- | --- | --- |
| Cc1nnc2sc3c(OCc4ccccc4)ncnc3c2c1C | <5.00 | 52 | > 10000 |  |  |  |  |
| Cc1nnc2sc3c(NCc4ccc(C5(O)CCC5)cc4)ncnc3c2c1C | 7.01 | 90 | 97.8 |  |  |  |  |
| Cc1nnc2sc3c(N4CCCC4)ccnc3c2c1C | 6.07 | 46 | 842 |  |  |  |  |
| Cc1nnc2oc3c(NCc4ccc(C(C)(C)O)cc4)ncnc3c2c1C | 5.75 | 65 | 1770 |  |  | 25 fold |  |
| COC(C)(C)c1ccc(CNc2ncnc3c2sc2nnc(C)c(C)c23)cc1 | 6.50 | 100 | 315 |  |  | 4 fold |  |
| Cc1nnc2sc3c(N4CC5(COC5)C4)ncnc3c2c1C | 6.57 | 89 | 268 |  |  |  |  |
| Cc1nnc2sc3c(NCc4ccc(C(C)(C)O)nc4)ncnc3c2c1C | 7.14 | 79 | 72.5 |  |  |  | 4 |
| Cc1nnc2sc3c(OCc4ccc(C(C)(C)O)cc4)ncnc3c2c1C | 6.19 | 81 | 642 |  |  | 9 fold |  |
| Cc1nc(N2CCCC2)c2sc3nnc(C)c(C)c3c2n1 | <4.50 |  | > 30000 |  |  |  |  |
| Cc1nnc2sc3c(NCc4ccc(OC(F)F)cc4)ncnc3c2c1C | 6.58 | 69 | 261 |  |  |  |  |
| Cc1nnc2sc3c(N4CCCC4)nccc3c2c1C | 7.94 | 72 | 11.5 |  |  |  |  |
| Cc1nnc2sc3c(N(C)Cc4ccc(C(C)(C)O)cc4)ncnc3c2c1C | 6.60 | 86 | 249 |  |  | 3.4 fold |  |
| Cc1nnc2sc3c(NCc4ccc(C(C)(O)C5CC5)cc4)ncnc3c2c1C (centres unmarked) | 6.48 | 85 | 334 |  |  |  |  |
| CC(=O)OCc1nnc2sc3c(NCc4ccc(C(C)(C)O)cc4)ncnc3c2c1C | 5.97 | 59 | 1060 |  |  |  |  |
| Cc1nnc2sc3c(NC4CN(c5ncc(C(F)(F)F)cn5)C4)nccc3c2c1C | 6.97 | 87 | 108 |  |  |  |  |
| Cc1nnc2sc3c(NCc4ccc(C(C)(C)O)cc4F)ncnc3c2c1C | 6.55 | 85 | 285 |  |  |  |  |
| COc1ccc(CNc2nccc3c2sc2nnc(C)c(C)c23)cc1 | 7.61 | 80 | 24.6 |  |  |  |  |
| Cc1nnc2sc3c(NC4CCC4)ccnc3c2c1C | <4.50 |  | > 30000 |  |  |  |  |
| Cc1cc(CNc2ncnc3c2sc2nnc(C)c(C)c23)ccc1C(C)(C)O | 6.56 | 91 | 278 |  |  |  |  |
| COc1nnc2sc3c(NCc4ccc(C(C)(C)O)cc4)ncnc3c2c1C | 6.10 | 87 | 788 |  |  | 11 fold |  |
| COc1ccc(CNc2nncc3c2sc2nnc(C)c(C)c23)cc1F | 6.39 | 87 | 407 |  |  |  |  |
| Cc1nnc2sc3c(N4CCCC4)nncc3c2c1C | 6.57 | 96 | 271 |  |  |  |  |
| Cc1nnc2sc3c(NC4CN(c5ncc(F)cn5)C4)nccc3c2c1C | 7.84 | 79 | 14.6 |  |  |  |  |
| Cc1nnc2sc3c(NCc4ccc5c(c4)COC5(C)C)ncnc3c2c1C | 6.40 | 95 | 396 |  |  |  |  |

Where two headings read alike, the source gives them in different places.
